Laboratory results from ChEMBL document CHEMBL4020831, “Discovery of GDC-0853: A Potent, Selective, and Noncovalent Bruton's Tyrosine Kinase Inhibitor in Early Clinical Development” (J Med Chem, 2018).

The chains behind the UniProt entries cited, without tags or fusion partners. Residues count along the entry.
UniProt Q06187, 2-659 C481S limits assumed: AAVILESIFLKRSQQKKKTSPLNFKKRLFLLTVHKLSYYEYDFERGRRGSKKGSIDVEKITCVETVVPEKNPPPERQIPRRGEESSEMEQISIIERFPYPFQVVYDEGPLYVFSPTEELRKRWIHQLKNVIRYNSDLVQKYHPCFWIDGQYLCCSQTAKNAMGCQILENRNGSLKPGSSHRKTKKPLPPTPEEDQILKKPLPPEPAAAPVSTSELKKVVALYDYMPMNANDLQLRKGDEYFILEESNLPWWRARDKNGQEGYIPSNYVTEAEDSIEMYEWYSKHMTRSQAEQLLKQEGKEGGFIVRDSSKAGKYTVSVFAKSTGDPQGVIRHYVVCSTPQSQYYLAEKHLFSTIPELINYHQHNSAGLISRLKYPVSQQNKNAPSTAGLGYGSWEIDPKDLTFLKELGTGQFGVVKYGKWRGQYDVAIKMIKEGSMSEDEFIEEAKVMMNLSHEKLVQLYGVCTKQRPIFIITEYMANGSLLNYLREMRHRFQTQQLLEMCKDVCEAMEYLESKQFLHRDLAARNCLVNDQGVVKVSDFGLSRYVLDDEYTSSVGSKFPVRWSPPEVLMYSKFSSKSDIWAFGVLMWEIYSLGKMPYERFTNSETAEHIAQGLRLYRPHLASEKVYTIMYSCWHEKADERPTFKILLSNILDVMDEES
UniProt Q06187, 2-659 T474M limits assumed: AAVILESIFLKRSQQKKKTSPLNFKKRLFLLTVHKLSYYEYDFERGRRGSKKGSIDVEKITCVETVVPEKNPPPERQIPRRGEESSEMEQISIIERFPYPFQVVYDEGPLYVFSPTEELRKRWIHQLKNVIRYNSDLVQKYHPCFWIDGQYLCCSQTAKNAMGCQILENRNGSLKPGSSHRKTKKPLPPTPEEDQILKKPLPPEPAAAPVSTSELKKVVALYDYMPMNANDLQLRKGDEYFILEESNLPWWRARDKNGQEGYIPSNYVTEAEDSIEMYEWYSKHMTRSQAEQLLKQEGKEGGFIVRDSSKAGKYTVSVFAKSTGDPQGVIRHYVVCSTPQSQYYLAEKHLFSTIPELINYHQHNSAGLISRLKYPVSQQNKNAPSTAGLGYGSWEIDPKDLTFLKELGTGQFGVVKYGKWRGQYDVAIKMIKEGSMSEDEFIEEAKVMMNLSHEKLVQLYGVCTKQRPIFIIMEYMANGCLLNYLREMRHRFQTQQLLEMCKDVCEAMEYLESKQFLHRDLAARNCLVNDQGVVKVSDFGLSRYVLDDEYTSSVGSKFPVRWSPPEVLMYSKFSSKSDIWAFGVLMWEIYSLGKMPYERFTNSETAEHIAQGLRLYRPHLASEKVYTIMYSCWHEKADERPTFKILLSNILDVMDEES
UniProt Q06187, 2-659 T474I limits assumed: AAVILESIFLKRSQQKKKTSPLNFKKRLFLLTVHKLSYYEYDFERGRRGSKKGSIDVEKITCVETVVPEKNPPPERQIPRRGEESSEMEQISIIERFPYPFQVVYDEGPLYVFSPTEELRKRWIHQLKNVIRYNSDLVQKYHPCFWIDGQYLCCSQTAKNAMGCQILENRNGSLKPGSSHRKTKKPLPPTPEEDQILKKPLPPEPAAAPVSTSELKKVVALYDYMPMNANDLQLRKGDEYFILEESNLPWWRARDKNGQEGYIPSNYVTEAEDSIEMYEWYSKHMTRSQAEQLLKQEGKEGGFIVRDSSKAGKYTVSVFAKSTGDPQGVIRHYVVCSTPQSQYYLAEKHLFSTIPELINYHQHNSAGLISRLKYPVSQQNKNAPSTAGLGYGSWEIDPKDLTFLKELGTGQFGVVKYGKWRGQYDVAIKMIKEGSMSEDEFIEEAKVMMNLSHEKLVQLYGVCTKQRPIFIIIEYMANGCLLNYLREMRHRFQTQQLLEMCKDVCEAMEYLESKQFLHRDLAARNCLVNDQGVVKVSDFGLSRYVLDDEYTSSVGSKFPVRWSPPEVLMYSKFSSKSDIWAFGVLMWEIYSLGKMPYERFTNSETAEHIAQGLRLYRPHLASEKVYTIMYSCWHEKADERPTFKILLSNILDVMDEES

Assays:
Type in all cases: cell-based
[1] = target: Tyrosine-protein kinase BTK (Homo sapiens, UniProt Q06187, C481S); experiment: Inhibition of BTK C481S mutant (unknown origin) expressed in HEK293 cells
[2] = target: Tyrosine-protein kinase BTK (Homo sapiens, UniProt Q06187, T474M); experiment: Inhibition of BTK T474M mutant (unknown origin) expressed in HEK293 cells
[3] = target: Tyrosine-protein kinase BTK (Homo sapiens, UniProt Q06187, T474I); experiment: Inhibition of BTK T474I mutant (unknown origin) expressed in HEK293 cells

Ki [1]: 1.6 nM
Ki [2]: 3.4 nM
Ki [3]: 12.6 nM
Structure (SMILES): C[C@H]1CN(C2COC2)CCN1c1ccc(Nc2cc(-c3ccnc(N4CCn5c(cc6c5CC(C)(C)C6)C4=O)c3CO)cn(C)c2=O)nc1 [FENEBRUTINIB]
